Test system: R-28 and ARPE-19 cell line
Assay: Excipient toxicity studies, cell viability (MTT)
Details: R-28 and ARPE-19 cells, FIG. 6

With “D-a-tocopherol polyethylene glycol 1000 succinate [TPGS]” the “excipient concentration producing some toxic effect on cell viability” value was 0.04 to 0.045 mg.

— patent US20240024251A1, “POLYSACCHARIDE ENCAPSULATED OXYGEN NANOBUBBLES” (THE BOARD OF TRUSTEES OF THE UNIVERSITY OF ILLINOIS, priority 2020, published 2024)
